In patent publication US20090215723A1, “Organic silicic acids complex for therapeutic and cosmetic applications” (priority 2005, published 2009):

How the values were obtained:
[1] = higher concentrations polymerize; cited from earlier work
[2] = cited from earlier work
[3] = at 25° C.; cited from earlier work
[4] = without stabilizer

## orthosilicic acid
[1]
  concentration below which the monomer is relatively stable: < 10^−4 M
[2]; above pH 9.0, silicic acid ionized
  solubility above pH 9.0: solubility increases quickly
[2]; pure water
  solubility in pure water: slightly soluble
[3]
  pK1: 9.8
  pK2: 12
[4]
  concentration until which it is relatively stable in solution: about 1 mg/100 mL
